Assay results published in patent US5945585.

Biological target: acyl carrier protein (ACP) purified from E. coli (E. coli) (UniProt P0A6A8)

Q: How did the consumption of ACP in the synthesis of radiolabeled acyl-ACP (% of the ACP consumed) turn out when “acyl-ACP synthase purified from E. coli membranes (from UniProt P31119) (enzyme)” was run?
A: 88
